This note sets out measurements from ChEMBL document CHEMBL4350957, “Use of the 4-Hydroxytriazole Moiety as a Bioisosteric Tool in the Development of Ionotropic Glutamate Receptor Ligands” (J Med Chem, 2019).

Amino acid sequences for entries named in this document (tags omitted). A change or cut given only in a name is not applied to a line headed by its entry.
UniProt P19491: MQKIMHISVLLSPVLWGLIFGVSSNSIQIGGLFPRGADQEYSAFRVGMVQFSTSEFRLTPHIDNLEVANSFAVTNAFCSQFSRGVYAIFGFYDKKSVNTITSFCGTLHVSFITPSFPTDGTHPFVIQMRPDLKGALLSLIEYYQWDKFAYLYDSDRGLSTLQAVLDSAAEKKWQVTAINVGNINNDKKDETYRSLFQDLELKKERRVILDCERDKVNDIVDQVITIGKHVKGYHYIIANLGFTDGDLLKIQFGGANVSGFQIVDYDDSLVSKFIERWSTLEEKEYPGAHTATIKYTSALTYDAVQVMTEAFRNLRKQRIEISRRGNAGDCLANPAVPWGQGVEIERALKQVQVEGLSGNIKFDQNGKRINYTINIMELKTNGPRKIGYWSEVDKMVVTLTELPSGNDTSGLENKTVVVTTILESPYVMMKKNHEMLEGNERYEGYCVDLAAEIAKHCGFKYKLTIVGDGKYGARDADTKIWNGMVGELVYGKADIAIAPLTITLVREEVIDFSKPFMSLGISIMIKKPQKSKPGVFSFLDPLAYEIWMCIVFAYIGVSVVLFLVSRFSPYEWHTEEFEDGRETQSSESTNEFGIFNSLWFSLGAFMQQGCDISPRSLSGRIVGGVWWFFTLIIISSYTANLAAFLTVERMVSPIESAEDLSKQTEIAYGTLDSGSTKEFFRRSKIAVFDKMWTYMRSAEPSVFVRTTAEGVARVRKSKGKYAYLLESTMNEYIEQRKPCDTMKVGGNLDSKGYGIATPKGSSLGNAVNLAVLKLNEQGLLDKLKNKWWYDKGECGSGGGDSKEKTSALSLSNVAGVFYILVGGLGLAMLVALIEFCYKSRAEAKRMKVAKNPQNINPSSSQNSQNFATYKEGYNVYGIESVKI

The test deals with Glutamate receptor 2 (Rattus norvegicus, UniProt P19491). In words: biochemical.

By Ki is commonly meant a measure of affinity in units of concentration, obtained from inhibition or displacement. The low end stands for higher affinity, the high end for lower affinity. `NC(Cc1c(O)noc1-c1nnn(Cc2ccccc2)n1)C(=O)O` (stereo unspecified) showed a Ki of 750 nM.
